Measured values published in PubChem BioAssay (NCI).
Some results for these compounds are left out of this collection, so the calls shown say nothing about other tests.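 Five compound concentrations were applied to cells in 96-well plates for 48 hours; endpoints were derived by simple linear interpolation of the resulting dose-response curve. The concentration for 50% growth inhibition is given as GI50.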

Tests used:
Assay in all cases: inhibition of tumour cell growth, NCI panel, 48 h; in the data active = GI50 below about 0.43 µM; inactive = the rest
UACC-62 melanoma = tested on: UACC-62 melanoma
HL-60(TB) leukemia = tested on: HL-60(TB) leukemia
MDA-MB-435 = tested on: MDA-MB-435
SNB-75 CNS = tested on: SNB-75 CNS
HCT-116 colon = tested on: HCT-116 colon
HS 578T breast = tested on: HS 578T breast
MCF7 breast = tested on: MCF7 breast
SW-620 colon = tested on: SW-620 colon
OVCAR-5 ovarian = tested on: OVCAR-5 ovarian
HOP-62 NSCLC = tested on: HOP-62 NSCLC
A498 renal = tested on: A498 renal
CAKI-1 renal = tested on: CAKI-1 renal
PC-3 prostate = tested on: PC-3 prostate
RXF 393 renal = tested on: RXF 393 renal
SNB-19 CNS = tested on: SNB-19 CNS
IGROV1 ovarian = tested on: IGROV1 ovarian
786-0 renal = tested on: 786-0 renal
SF-295 CNS = tested on: SF-295 CNS
HCC-2998 colon = tested on: HCC-2998 colon
NCI-H322M lung = tested on: NCI-H322M lung
SN12C renal = tested on: SN12C renal
U251 CNS = tested on: U251 CNS
DU-145 prostate = tested on: DU-145 prostate
KM12 colon = tested on: KM12 colon
SR leukemia = tested on: SR leukemia
K-562 leukemia = tested on: K-562 leukemia
T-47D breast = tested on: T-47D breast
UO-31 renal = tested on: UO-31 renal
M14 melanoma = tested on: M14 melanoma
OVCAR-8 ovarian = tested on: OVCAR-8 ovarian
SF-539 CNS = tested on: SF-539 CNS
MOLT-4 leukemia = tested on: MOLT-4 leukemia
RPMI-8226 leukemia = tested on: RPMI-8226 leukemia
CCRF-CEM leukemia = tested on: CCRF-CEM leukemia
MDA-N = tested on: MDA-N
NCI-H23 lung = tested on: NCI-H23 lung
MDA-MB-231 breast = tested on: MDA-MB-231 breast
SK-MEL-5 melanoma = tested on: SK-MEL-5 melanoma
SF-268 CNS = tested on: SF-268 CNS
UACC-257 melanoma = tested on: UACC-257 melanoma
NCI-H460 lung = tested on: NCI-H460 lung
LOX IMVI melanoma = tested on: LOX IMVI melanoma
TK-10 renal = tested on: TK-10 renal
NCI-H522 lung = tested on: NCI-H522 lung
OVCAR-3 ovarian = tested on: OVCAR-3 ovarian
OVCAR-4 ovarian = tested on: OVCAR-4 ovarian
ACHN renal = tested on: ACHN renal
HT29 colon = tested on: HT29 colon
COLO 205 colon = tested on: COLO 205 colon
NCI/ADR-RES ovarian = tested on: NCI/ADR-RES ovarian
SK-OV-3 ovarian = tested on: SK-OV-3 ovarian
MALME-3M melanoma = tested on: MALME-3M melanoma
HCT-15 colon = tested on: HCT-15 colon
NCI-H226 lung = tested on: NCI-H226 lung
SK-MEL-2 melanoma = tested on: SK-MEL-2 melanoma
SK-MEL-28 melanoma = tested on: SK-MEL-28 melanoma
A549 NSCLC = tested on: A549 NSCLC
EKVX NSCLC = tested on: EKVX NSCLC

Measured: GI50

O=C(OC1CCN(Cc2ccccc2)C1)C(O)(c1ccccc1)c1ccccc1 (stereo not drawn)
inactive: UACC-62 melanoma > 100 µM | HL-60(TB) leukemia > 100 µM | MDA-MB-435 = > 100 µM | SNB-75 CNS > 100 µM | HCT-116 colon > 100 µM | HS 578T breast > 100 µM | MCF7 breast > 100 µM | SW-620 colon > 100 µM | OVCAR-5 ovarian > 100 µM | HOP-62 NSCLC > 100 µM | A498 renal > 100 µM | CAKI-1 renal > 100 µM | PC-3 prostate 92.8 µM | RXF 393 renal > 100 µM | SNB-19 CNS > 100 µM | IGROV1 ovarian > 100 µM | 786-0 renal > 100 µM | SF-295 CNS > 100 µM | HCC-2998 colon > 100 µM | NCI-H322M lung > 100 µM | SN12C renal > 100 µM | U251 CNS > 100 µM | DU-145 prostate > 100 µM | KM12 colon > 100 µM | SR leukemia > 100 µM | K-562 leukemia > 100 µM | T-47D breast > 100 µM | UO-31 renal > 100 µM | M14 melanoma > 100 µM | OVCAR-8 ovarian > 100 µM | SF-539 CNS > 100 µM | MOLT-4 leukemia 67.1 µM | RPMI-8226 leukemia 60.2 µM | CCRF-CEM leukemia > 100 µM | MDA-N > 100 µM | NCI-H23 lung > 100 µM | MDA-MB-231 breast > 100 µM | SK-MEL-5 melanoma > 100 µM | SF-268 CNS > 100 µM | UACC-257 melanoma > 100 µM | NCI-H460 lung > 100 µM | LOX IMVI melanoma > 100 µM | TK-10 renal > 100 µM | NCI-H522 lung > 100 µM | OVCAR-3 ovarian > 100 µM | OVCAR-4 ovarian > 100 µM | ACHN renal > 100 µM | HT29 colon 63.8 µM | COLO 205 colon > 100 µM | NCI/ADR-RES ovarian > 100 µM | SK-OV-3 ovarian > 100 µM | MALME-3M melanoma 78.1 µM | HCT-15 colon > 100 µM | NCI-H226 lung > 100 µM | SK-MEL-2 melanoma > 100 µM | SK-MEL-28 melanoma > 100 µM | A549 NSCLC > 100 µM | EKVX NSCLC > 100 µM
